# The entries are a selection whose mix differs from that of the whole data set. Entries with a potency or affinity are not part of this list. Records with an inconclusive call do not appear. The source made the active and inactive calls.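 The calls were made as follows: active = pathway reporter half-maximal dose under half the control reporter's, or control reporter unaffected while pathway reporter is inhibited; inconclusive = either signal flat at 30 to 70% inhibition or poorly fitted; inactive = the rest.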
# Assay: LMP1 TES1 pathway selectivity over dsRED control – imaging, HEK293T, dual-color eGFP/dsRED, cherry-picks, selectivity assay for LMP1 NF-kB inhibitor project, dose response (AID 588398);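 also: 0% = median of neutral control wells and -100% = median of MG132 positive control wells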
# Conditions: HEK293T Tet-On dsRED counter-screen channel, 48 h; at 19.5 µM (top of the series)
row,Structure (SMILES),"activity change, negative = inhibition"
1,COC(=O)C1C2CC[C@@H](CC1OC(=O)c1ccccc1)N2 (stereo partly specified),inactive: 5.47%

# From PubChem BioAssay AID588398 (Broad Institute, 2011)
